Data taken from PubChem BioAssay (NCI).
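How tested: cells in 96-well plates exposed to compound for 48 hours at five concentrations. GI50 marks 50% less growth. TGI: total growth inhibition.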

Key:
Test in all cases: inhibition of tumour cell growth, NCI panel, 48 h
HOP-92 NSCLC = test system: HOP-92 NSCLC
SR leukemia = test system: SR leukemia
DU-145 prostate = test system: DU-145 prostate
SK-MEL-5 melanoma = test system: SK-MEL-5 melanoma
BT-549 breast = test system: BT-549 breast
NCI-H226 lung = test system: NCI-H226 lung
TK-10 renal = test system: TK-10 renal
UO-31 renal = test system: UO-31 renal
MDA-N = test system: MDA-N
HT29 colon = test system: HT29 colon
U251 CNS = test system: U251 CNS
SK-OV-3 ovarian = test system: SK-OV-3 ovarian
SK-MEL-28 melanoma = test system: SK-MEL-28 melanoma
MALME-3M melanoma = test system: MALME-3M melanoma
786-0 renal = test system: 786-0 renal
HL-60(TB) leukemia = test system: HL-60(TB) leukemia
M14 melanoma = test system: M14 melanoma
CCRF-CEM leukemia = test system: CCRF-CEM leukemia
OVCAR-4 ovarian = test system: OVCAR-4 ovarian
IGROV1 ovarian = test system: IGROV1 ovarian
SF-295 CNS = test system: SF-295 CNS
CAKI-1 renal = test system: CAKI-1 renal
HCC-2998 colon = test system: HCC-2998 colon
RXF 393 renal = test system: RXF 393 renal
MOLT-4 leukemia = test system: MOLT-4 leukemia
UACC-62 melanoma = test system: UACC-62 melanoma
SF-539 CNS = test system: SF-539 CNS
SNB-75 CNS = test system: SNB-75 CNS
OVCAR-5 ovarian = test system: OVCAR-5 ovarian
SNB-19 CNS = test system: SNB-19 CNS
HCT-15 colon = test system: HCT-15 colon
T-47D breast = test system: T-47D breast
NCI/ADR-RES ovarian = test system: NCI/ADR-RES ovarian
PC-3 prostate = test system: PC-3 prostate
RPMI-8226 leukemia = test system: RPMI-8226 leukemia
MCF7 breast = test system: MCF7 breast
OVCAR-8 ovarian = test system: OVCAR-8 ovarian
LOX IMVI melanoma = test system: LOX IMVI melanoma
A549 NSCLC = test system: A549 NSCLC
K-562 leukemia = test system: K-562 leukemia
MDA-MB-435 = test system: MDA-MB-435
NCI-H23 lung = test system: NCI-H23 lung
SK-MEL-2 melanoma = test system: SK-MEL-2 melanoma
UACC-257 melanoma = test system: UACC-257 melanoma
COLO 205 colon = test system: COLO 205 colon
SF-268 CNS = test system: SF-268 CNS
HCT-116 colon = test system: HCT-116 colon
SN12C renal = test system: SN12C renal
SW-620 colon = test system: SW-620 colon
EKVX NSCLC = test system: EKVX NSCLC
MDA-MB-231 breast = test system: MDA-MB-231 breast
HS 578T breast = test system: HS 578T breast
HOP-62 NSCLC = test system: HOP-62 NSCLC
OVCAR-3 ovarian = test system: OVCAR-3 ovarian
KM12 colon = test system: KM12 colon

For O=C(OCC12COP(=O)(OC1)OC2)C(C(F)(F)F)C(F)(F)F, the GI50 (HOP-92 NSCLC) was greater than 100 µM, the TGI (HOP-92 NSCLC) was greater than 100 µM and the GI50 (SR leukemia) was greater than 100 µM. The TGI (SR leukemia) was greater than 100 µM, the GI50 (DU-145 prostate) was greater than 100 µM and the TGI (DU-145 prostate) was greater than 100 µM. It also gave a GI50 (SK-MEL-5 melanoma) greater than 100 µM, a TGI (SK-MEL-5 melanoma) greater than 100 µM and a GI50 (BT-549 breast) greater than 100 µM. The TGI (BT-549 breast) was greater than 100 µM, the GI50 (NCI-H226 lung) was 43.2 µM and the TGI (NCI-H226 lung) was greater than 100 µM. It also gave a GI50 (TK-10 renal) greater than 100 µM, a TGI (TK-10 renal) greater than 100 µM and a GI50 (UO-31 renal) of 80.2 µM. For the same compound, the TGI (UO-31 renal) was greater than 100 µM, the GI50 (MDA-N) was greater than 100 µM and the TGI (MDA-N) was greater than 100 µM. It also gave a GI50 (HT29 colon) greater than 100 µM, a TGI (HT29 colon) greater than 100 µM and a GI50 (U251 CNS) greater than 100 µM. It also gave a TGI (U251 CNS) greater than 100 µM, a GI50 (SK-OV-3 ovarian) greater than 100 µM and a TGI (SK-OV-3 ovarian) greater than 100 µM. It also gave a GI50 (SK-MEL-28 melanoma) greater than 100 µM, a TGI (SK-MEL-28 melanoma) greater than 100 µM and a GI50 (MALME-3M melanoma) greater than 100 µM. For the same compound, the TGI (MALME-3M melanoma) was greater than 100 µM, the GI50 (786-0 renal) was greater than 100 µM and the TGI (786-0 renal) was greater than 100 µM. For the same compound, the GI50 (HL-60(TB) leukemia) was greater than 100 µM, the TGI (HL-60(TB) leukemia) was greater than 100 µM and the GI50 (M14 melanoma) was greater than 100 µM. The TGI (M14 melanoma) was greater than 100 µM, the GI50 (CCRF-CEM leukemia) was greater than 100 µM and the TGI (CCRF-CEM leukemia) was greater than 100 µM. It also gave a GI50 (OVCAR-4 ovarian) greater than 100 µM, a TGI (OVCAR-4 ovarian) greater than 100 µM and a GI50 (IGROV1 ovarian) greater than 100 µM. The TGI (IGROV1 ovarian) was greater than 100 µM, the GI50 (SF-295 CNS) was greater than 100 µM and the TGI (SF-295 CNS) was greater than 100 µM. For the same compound, the GI50 (CAKI-1 renal) was greater than 100 µM, the TGI (CAKI-1 renal) was greater than 100 µM and the GI50 (HCC-2998 colon) was greater than 100 µM. For the same compound, the TGI (HCC-2998 colon) was greater than 100 µM, the GI50 (RXF 393 renal) was greater than 100 µM and the TGI (RXF 393 renal) was greater than 100 µM. For the same compound, the GI50 (MOLT-4 leukemia) was greater than 100 µM, the TGI (MOLT-4 leukemia) was greater than 100 µM and the GI50 (UACC-62 melanoma) was greater than 100 µM. It also gave a TGI (UACC-62 melanoma) greater than 100 µM, a GI50 (SF-539 CNS) greater than 100 µM and a TGI (SF-539 CNS) greater than 100 µM. It also gave a GI50 (SNB-75 CNS) greater than 100 µM, a TGI (SNB-75 CNS) greater than 100 µM and a GI50 (OVCAR-5 ovarian) greater than 100 µM. It also gave a TGI (OVCAR-5 ovarian) greater than 100 µM, a GI50 (SNB-19 CNS) greater than 100 µM and a TGI (SNB-19 CNS) greater than 100 µM. The GI50 (HCT-15 colon) was greater than 100 µM, the TGI (HCT-15 colon) was greater than 100 µM and the GI50 (T-47D breast) was greater than 100 µM. It also gave a TGI (T-47D breast) greater than 100 µM, a GI50 (NCI/ADR-RES ovarian) greater than 100 µM and a TGI (NCI/ADR-RES ovarian) greater than 100 µM. For the same compound, the GI50 (PC-3 prostate) was greater than 100 µM, the TGI (PC-3 prostate) was greater than 100 µM and the GI50 (RPMI-8226 leukemia) was greater than 100 µM. It also gave a TGI (RPMI-8226 leukemia) greater than 100 µM, a GI50 (MCF7 breast) greater than 100 µM and a TGI (MCF7 breast) greater than 100 µM. For the same compound, the GI50 (OVCAR-8 ovarian) was greater than 100 µM, the TGI (OVCAR-8 ovarian) was greater than 100 µM and the GI50 (LOX IMVI melanoma) was greater than 100 µM. For the same compound, the TGI (LOX IMVI melanoma) was greater than 100 µM, the GI50 (A549 NSCLC) was greater than 100 µM and the TGI (A549 NSCLC) was greater than 100 µM. The GI50 (K-562 leukemia) was greater than 100 µM, the TGI (K-562 leukemia) was greater than 100 µM and the GI50 (MDA-MB-435) was greater than 100 µM. For the same compound, the TGI (MDA-MB-435) was greater than 100 µM, the GI50 (NCI-H23 lung) was greater than 100 µM and the TGI (NCI-H23 lung) was greater than 100 µM. The GI50 (SK-MEL-2 melanoma) was greater than 100 µM, the TGI (SK-MEL-2 melanoma) was greater than 100 µM and the GI50 (UACC-257 melanoma) was greater than 100 µM. For the same compound, the TGI (UACC-257 melanoma) was greater than 100 µM, the GI50 (COLO 205 colon) was greater than 100 µM and the TGI (COLO 205 colon) was greater than 100 µM. For the same compound, the GI50 (SF-268 CNS) was greater than 100 µM, the TGI (SF-268 CNS) was greater than 100 µM and the GI50 (HCT-116 colon) was greater than 100 µM. For the same compound, the TGI (HCT-116 colon) was greater than 100 µM, the GI50 (SN12C renal) was greater than 100 µM and the TGI (SN12C renal) was greater than 100 µM. For the same compound, the GI50 (SW-620 colon) was greater than 100 µM, the TGI (SW-620 colon) was greater than 100 µM and the GI50 (EKVX NSCLC) was greater than 100 µM. For the same compound, the TGI (EKVX NSCLC) was greater than 100 µM, the GI50 (MDA-MB-231 breast) was greater than 100 µM and the TGI (MDA-MB-231 breast) was greater than 100 µM. For the same compound, the GI50 (HS 578T breast) was greater than 100 µM, the TGI (HS 578T breast) was greater than 100 µM and the GI50 (HOP-62 NSCLC) was greater than 100 µM. The TGI (HOP-62 NSCLC) was greater than 100 µM, the GI50 (OVCAR-3 ovarian) was greater than 100 µM and the TGI (OVCAR-3 ovarian) was greater than 100 µM. For the same compound, the GI50 (KM12 colon) was greater than 100 µM and the TGI (KM12 colon) was greater than 100 µM.
